The text below walks through data of patent US9611262B2, “Substituted 2-azabicycles and their use as orexin receptor modulators” (JANSSEN PHARMACEUTICA NV, priority 2014, dated 2017).

Chains of the proteins cited; added tags and fusions are not shown.
UniProt O43614, whole entry: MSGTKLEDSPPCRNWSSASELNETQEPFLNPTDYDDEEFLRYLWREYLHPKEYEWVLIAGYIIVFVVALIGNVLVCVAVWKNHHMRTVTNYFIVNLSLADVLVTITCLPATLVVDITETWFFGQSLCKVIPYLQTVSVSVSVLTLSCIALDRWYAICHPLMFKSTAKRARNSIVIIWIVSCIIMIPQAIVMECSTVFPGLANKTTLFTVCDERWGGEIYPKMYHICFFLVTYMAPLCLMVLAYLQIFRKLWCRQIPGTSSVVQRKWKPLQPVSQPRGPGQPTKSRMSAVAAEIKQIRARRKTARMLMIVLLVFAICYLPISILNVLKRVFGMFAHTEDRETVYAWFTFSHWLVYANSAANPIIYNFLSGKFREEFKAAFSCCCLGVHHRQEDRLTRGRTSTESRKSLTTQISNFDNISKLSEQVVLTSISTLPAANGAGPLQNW

Each structure is given as a SMILES string.

For the test, the target named is human orexin 2 receptor (Homo sapiens (Human), UniProt O43614). The experiment in a line: Human orexin 2 receptor radioligand binding ([3H]-EMPA competition). The conditions noted are these: HEK293 stably expressing human orexin 2 receptor; 2 nM [3H]-EMPA; averages of 2-20 runs; read-out: hOX2 Ki. As for the experimental part:
The in vitro affinity of the compounds of the invention for the rat/human orexin 1 and human orexin 2 receptors was determined by competitive radioligand binding using [^3H](1-(5-(2-fluoro-phenyl)-2-methyl-thiazol-4-yl)-1-((S)-2-(5-phenyl-(1,3,4)oxadiazol-2-ylmethyl)-pyrrolidin-1-yl)-methanone) (Langmead et al., 2004) and [^3H]EMPA (n-ethyl-2[96-methoxy-pyridin-3-yl)-(toluene-2-sulfonyl)-amino]-N-pyridin-3-ylmethyl acetamide), respectively (Langmead et al., 2004, British Journal of Pharmacology 141:340-346; Malherbe et al., 2004, British Journal of Pharmacology 156:1326-41).
Data are analyzed using pc-Sandy macro and graphed on Graphpad Prism 5. For analysis, each concentration point is averaged from triplicate values and the averaged values are plotted on Graphpad Prism. The IC50 was determined by applying the following equation (GraphPad Prism 5.0, San Diego) for one site competition where X=log (concentration) and Y=specific binding. Top denotes the total [^3H]— (1-(5-(2-fluoro-phenyl)-2-methyl-thiazol-4-yl)-1-((S)-2-(5-phenyl-(1,3,4)oxadiazol-2-ylmethyl)-pyrrolidin-1-yl)-methanone) binding, bottom denotes the nonspecific [^3H]— (1-(5-(2-fluoro-phenyl)-2-methyl-thiazol-4-yl)-1-((S)-2-(5-phenyl-(1,3,4)oxadiazol-2-ylmethyl)-pyrrolidin-1-yl)-methanone) binding. Graphpad Prism calculates Ki value from IC50 and the pre-determined Kd values for [^3H]— (1-(5-(2-fluoro-phenyl)-2-methyl-thiazol-4-yl)-1-((S)-2-(5-phenyl-(1,3,4)oxadiazol-2-ylmethyl)-pyrrolidin-1-yl)-methanone) and [^3H]-EMPA. The Ki for each compound is then uploaded into 3DX. Each run comprises individual compounds in triplicate. The data in Table 1 and Table 2 represent averages from between 2-20 runs
Human Orexin 2 Receptor Radioligand Binding Studies
HEK293 stably expressing human orexin 2 receptor (Genebank accession number NM_001526) were grown to confluency in DMEM (Hyclone, cat # SH30022), 10% FBS, 1× Pen/Strep, 1× NaPyruvate, 10 mM HEPES, 600 μg/ml G418 media on 150 cm^2 tissue culture plates, washed with 5 mM EDTA in PBS (HyClone Dulbecco's Phosphate Buffered Saline 1× with Calcium and Magnesium, Cat # SH30264.01, hereafter referred to simply as PBS) and scraped into 50 ml tubes. After centrifugation (2K×G, 5 min at 4° C.), the supernatant was aspirated and the pellets frozen and stored at −80° C. Cells were resuspended in PBS in the presence of 1 tablet of protease inhibitor cocktail (Roche, Cat. #11836145001) per 50 mL. […] Compounds were solubilized in 100% DMSO (Acros Organics, Cat. #61042-1000) and tested over a range of 7 concentration (from 0.1 nM to 10 μM). The final concentration of DMSO in the reactions is equal to or less than 0.1%. Total and nonspecific binding was determined in the absence and presence of 10 μM almorexant. The total volume of each reaction is 200 μL (20 μL of diluted compounds, 80 μL of [^3H]-EMPA diluted in PBS and 100 μL of the cell suspension). Reactions were run for 60 min at room temperature and terminated by filtration through GF/C filter plates (PerkinElmer, Cat. #6005174) presoaked in 0.3% polyethylenimine using the cell harvester (PerkinElmer Filtermate). The plates were washed 3 times by aspirating 30 ml PBS through the plates. Plates were dried in 55° C. oven for 60 min, scintillation fluid was added, and the radioactivity was counted on a Topcount (Packard).
Consider `Cc1ccc(C(=O)N2C(C)C3CC(Oc4ccc(C(F)(F)F)cn4)C2C3)c(-n2nccn2)n1` (racemic) [Example 10, (R/S)-(6-methyl-2-(2H-1,2,3-triazol-2-yl)pyridin-3-yl)(3-methyl-6-((5-(trifluoromethyl)pyridin-2-yl)oxy)-2-azabicyclo[2.2.1]heptan-2-yl)methanone], for which the Ki (in general, a dissociation constant, usually derived from enzyme kinetics or from competition with a known ligand) was greater than 10 µM. The result for `CC1C2CC(Oc3ccc(C(F)(F)F)cn3)C(C2)N1C(=O)c1ccccc1-c1ncccn1` (racemic) [Example 15, (R/S)-(3-methyl-6-((5-(trifluoromethyl)pyridin-2-yl)oxy)-2-azabicyclo[2.2.1]heptan-2-yl)(2-(pyrimidin-2-yl)phenyl)methanone] reads 1.2 µM; that for `CC1C2CC(Oc3ccc(C(F)(F)F)cn3)C(C2)N1C(=O)c1ccc(F)cc1-c1ncccn1` (racemic) [Example 17, (R/S)-(4-fluoro-2-(pyrimidin-2-yl)phenyl)(−3-methyl-6-((5-(trifluoromethyl)pyridin-2-yl)oxy)-2-azabicyclo[2.2.1]heptan-2-yl)methanone], 1.1 µM; that for `Cc1cnc(C(=O)N2[C@H](C)[C@H]3C[C@@H](Oc4ccc(C(F)(F)F)cn4)[C@@H]2C3)c(-n2nccn2)c1` (relative stereo) [Example 24, (5-methyl-3-(2H-1,2,3-triazol-2-yl)pyridin-2-yl)((1S*,3R*,4R*,6R*)-3-methyl-6-((5-(trifluoromethyl)pyridin-2-yl)oxy)-2-azabicyclo[2.2.1]heptan-2-yl)methanone], 1.5 µM. To `CC1C2CC(Oc3ccc(C(F)(F)F)cn3)C(C2)N1C(=O)c1ccccc1-n1nccn1` (single isomer, unassigned) [Example 2, (R/S)-(2-(2H-1,2,3-triazol-2-yl)phenyl)(3-methyl-6-((5-(trifluoromethyl)pyridin-2-yl)oxy)-2-azabicyclo[2.2.1]heptan-2-yl)methanone] belongs 0.668 µM; to `CC1C2CC(Oc3ccc(C(F)(F)F)cn3)C(C2)N1C(=O)c1ccccc1-n1nccn1` (single isomer, unassigned) [Example 2A, (2-(2H-1,2,3-triazol-2-yl)phenyl)((1R*,3R*,4S*,6S*)-3-methyl-6-((5-(trifluoromethyl)pyridin-2-yl)oxy)-2-azabicyclo[2.2.1]heptan-2-yl)methanone], greater than 10 µM. The result for `CC1C2CC(Oc3ccc(C(F)(F)F)cn3)C(C2)N1C(=O)c1ccccc1-n1nccn1` (single isomer, unassigned) [Example 2B, (2-(2H-1,2,3-triazol-2-yl)phenyl)((1S*,3S*,4R*,6R*)-3-methyl-6-((5-(trifluoromethyl)pyridin-2-yl)oxy)-2-azabicyclo[2.2.1]heptan-2-yl)methanone] reads 0.975 µM; that for `Cc1ccc(-n2nccn2)c(C(=O)N2C(C)C3CC(Oc4ccc(C(F)(F)F)cn4)C2C3)n1` (single isomer, unassigned) [Example 3B, (6-methyl-3-(2H-1,2,3-triazol-2-yl)pyridin-2-yl)((1S*,3S*,4R*,6R*)-3-methyl-6-((5-(trifluoromethyl)pyridin-2-yl)oxy)-2-azabicyclo[2.2.1]heptan-2-yl)methanone], greater than 10 µM. Take `Cc1ccc(-c2ncccn2)c(C(=O)N2C(C)C3CC(Oc4ccc(C(F)(F)F)cn4)C2C3)n1` (single isomer, unassigned) [Example 16A, (6-methyl-3-(pyrimidin-2-yl)pyridin-2-yl)((1R*,3S*,4S*,6S*)-3-methyl-6-((5-(trifluoromethyl)pyridin-2-yl)oxy)-2-azabicyclo[2.2.1]heptan-2-yl)methanone]: the inhibition constant Ki was greater than 10 µM.

As to `CC1C2CC(Oc3ccc(C(F)(F)F)cn3)C(C2)N1C(=O)c1ccccc1-c1ncc(F)cn1` (single isomer, unassigned) [Example 19A, (2-(5-fluoropyrimidin-2-yl)phenyl)((1R*,3S*,4S*,6S*)-3-methyl-6-((5-(trifluoromethyl)pyridin-2-yl)oxy)-2-azabicyclo[2.2.1]heptan-2-yl)methanone], the Ki is greater than 10 µM. The result for `CC1C2CC(Oc3ccc(C(F)(F)F)cn3)C(C2)N1C(=O)c1ccccc1-n1nccn1` (single isomer, unassigned) [Example 21, (R/S)-(2-(2H-1,2,3-triazol-2-yl)phenyl)(3-methyl-6-((5-(trifluoromethyl)pyridin-2-yl)oxy)-2-azabicyclo[2.2.1]heptan-2-yl)methanone] reads 0.619 µM; that for `CC1C2CC(Oc3ccc(C(F)(F)F)cn3)C(C2)N1C(=O)c1ccccc1-n1nccn1` (single isomer, unassigned) [Example 21A, (2-(2H-1,2,3-triazol-2-yl)phenyl)((1R*,3S*,4S*,6S*)-3-methyl-6-((5-(trifluoromethyl)pyridin-2-yl)oxy)-2-azabicyclo[2.2.1]heptan-2-yl)methanone], greater than 10 µM. The result for `CC1C2CC(Oc3ccc(C(F)(F)F)cn3)C(C2)N1C(=O)c1ccccc1-n1nccn1` (single isomer, unassigned) [Example 21B, (2-(2H-1,2,3-triazol-2-yl)phenyl)((1S*,3R*,4R*,6R*)-3-methyl-6-((5-(trifluoromethyl)pyridin-2-yl)oxy)-2-azabicyclo[2.2.1]heptan-2-yl)methanone] reads 0.518 µM; that for `Cc1ccc(-n2nccn2)c(C(=O)N2C(C)C3CC(Oc4ccc(C(F)(F)F)cn4)C2C3)n1` (single isomer, unassigned) [Example 22A, (6-methyl-3-(2H-1,2,3-triazol-2-yl)pyridin-2-yl)((1R*,3S*,4S*,6S*)-3-methyl-6-((5-(trifluoromethyl)pyridin-2-yl)oxy)-2-azabicyclo[2.2.1]heptan-2-yl)methanone], greater than 10 µM; that for `C[C@@H]1[C@H]2C[C@@H](Oc3ccc(Cl)cn3)[C@H](C2)N1C(=O)c1ccccc1-n1nccn1` [Example 121, [(1R,2R,4S,5R)-5-[(5-chloro-2-pyridyl)oxy]-2-methyl-3-azabicyclo[2.2.1]heptan-3-yl]-[2-(triazol-2-yl)phenyl]methanone], 0.423 µM.

Regarding `[2H]C1([2H])[C@H]2C[C@@H]([C@@H]1Oc1ccc(C(F)(F)F)cn1)N(C(=O)c1ccccc1-n1nccn1)[C@@H]2C` [Example 201, [(1R,3R,4S,6R)-2,2-dideuterio-6-methyl-3-[[5-(trifluoromethyl)-2-pyridyl]oxy]-5-azabicyclo[2.2.1]heptan-5-yl]-[2-(triazol-2-yl)phenyl]methanone], the Ki is 0.691 µM.
